Among the data in ChEMBL document CHEMBL3352533, “Multi-dimensional target profiling of N,4-diaryl-1,3-thiazole-2-amines as potent inhibitors of eicosanoid metabolism” (Eur J Med Chem, 2014) are Activity values, retold here.

Sequences of proteins named here, by UniProt entry; tags and fusion partners are left off.
UniProt P23219, whole entry: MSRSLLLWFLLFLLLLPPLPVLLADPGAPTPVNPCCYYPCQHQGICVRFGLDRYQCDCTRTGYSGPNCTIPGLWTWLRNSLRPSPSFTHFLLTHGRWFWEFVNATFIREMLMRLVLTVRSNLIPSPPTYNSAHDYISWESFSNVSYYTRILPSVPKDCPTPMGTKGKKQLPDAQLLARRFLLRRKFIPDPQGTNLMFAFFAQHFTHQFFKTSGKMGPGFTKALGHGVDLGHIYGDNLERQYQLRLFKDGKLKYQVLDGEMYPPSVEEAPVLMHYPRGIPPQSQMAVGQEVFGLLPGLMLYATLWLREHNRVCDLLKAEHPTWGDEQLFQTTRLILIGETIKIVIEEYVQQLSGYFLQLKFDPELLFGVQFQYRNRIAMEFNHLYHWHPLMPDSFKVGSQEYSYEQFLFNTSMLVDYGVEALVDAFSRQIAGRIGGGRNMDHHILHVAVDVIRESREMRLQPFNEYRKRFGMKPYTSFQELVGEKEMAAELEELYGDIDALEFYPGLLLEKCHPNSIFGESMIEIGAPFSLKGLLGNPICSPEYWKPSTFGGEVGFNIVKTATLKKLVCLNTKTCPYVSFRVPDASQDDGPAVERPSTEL

The target of test [1] is T1, Polyunsaturated fatty acid lipoxygenase ALOX12 (Homo sapiens) (UniProt P18054).
T1 sequence (whole entry): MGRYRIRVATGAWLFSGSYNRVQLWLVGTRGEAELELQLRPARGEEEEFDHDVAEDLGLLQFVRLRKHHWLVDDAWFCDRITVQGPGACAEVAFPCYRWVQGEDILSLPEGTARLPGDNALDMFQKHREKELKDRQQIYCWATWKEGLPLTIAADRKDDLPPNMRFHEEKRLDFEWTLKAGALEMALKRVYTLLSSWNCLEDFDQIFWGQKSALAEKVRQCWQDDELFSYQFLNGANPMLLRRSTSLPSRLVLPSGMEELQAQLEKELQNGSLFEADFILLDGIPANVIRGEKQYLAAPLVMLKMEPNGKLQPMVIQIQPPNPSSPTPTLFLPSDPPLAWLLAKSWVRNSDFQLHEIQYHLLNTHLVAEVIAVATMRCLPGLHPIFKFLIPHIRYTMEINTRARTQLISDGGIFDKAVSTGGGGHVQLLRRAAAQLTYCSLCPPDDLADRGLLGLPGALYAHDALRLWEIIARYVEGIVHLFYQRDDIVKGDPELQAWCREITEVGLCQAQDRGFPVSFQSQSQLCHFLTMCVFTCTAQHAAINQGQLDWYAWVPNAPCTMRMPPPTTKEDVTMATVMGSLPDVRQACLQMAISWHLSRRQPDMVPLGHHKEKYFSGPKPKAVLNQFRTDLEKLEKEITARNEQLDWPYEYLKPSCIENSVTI
Briefly: Inhibition of 12-LO-mediated 12-HPETE formation in human platelets using arachidonic acid as substrate assessed as residual activity at 50 uM preincubated for 15 mins before substrate addition measured after 10 mins. Put shortly:
(§1)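 Freshly isolated human platelets (10^8 in 1 ml PBS pH 7.4 with 1 mg/ml glucose and 1 mM CaCl2) preincubated with compound or DMSO 15 min at 37 °C, then 10 µM AA added; 10 min at 37 °C, stopped with ice-cold methanol. HPLC: 12-H(P)ETE for 12-LO, 12-HHT for COX-1; percent of DMSO control, n ≥ 3, mean ± S.E.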

Test [2] has as its target T2, Polyunsaturated fatty acid lipoxygenase ALOX15 (Homo sapiens) (UniProt P16050).
T2 sequence (whole entry): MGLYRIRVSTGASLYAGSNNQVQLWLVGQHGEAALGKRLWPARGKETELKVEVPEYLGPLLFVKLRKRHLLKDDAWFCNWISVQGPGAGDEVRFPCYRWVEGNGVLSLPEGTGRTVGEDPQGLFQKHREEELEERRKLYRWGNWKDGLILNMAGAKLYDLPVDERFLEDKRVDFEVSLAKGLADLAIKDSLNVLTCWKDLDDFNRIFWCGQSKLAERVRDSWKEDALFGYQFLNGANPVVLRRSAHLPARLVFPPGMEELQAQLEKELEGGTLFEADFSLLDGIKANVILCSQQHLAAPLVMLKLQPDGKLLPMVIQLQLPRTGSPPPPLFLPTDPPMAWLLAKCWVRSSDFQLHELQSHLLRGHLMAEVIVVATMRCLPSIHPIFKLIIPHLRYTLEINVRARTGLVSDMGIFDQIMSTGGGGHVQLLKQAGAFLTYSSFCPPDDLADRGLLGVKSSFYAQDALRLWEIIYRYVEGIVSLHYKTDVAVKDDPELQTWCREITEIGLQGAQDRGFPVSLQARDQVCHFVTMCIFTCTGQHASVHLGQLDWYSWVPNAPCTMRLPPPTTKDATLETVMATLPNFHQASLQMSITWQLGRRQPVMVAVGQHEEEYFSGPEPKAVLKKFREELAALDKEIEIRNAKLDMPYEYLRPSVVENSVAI
Kind of test: Inhibition of 15-LO1-mediated 15-HPETE formation in human eosinophil using arachidonic acid as substrate assessed as residual activity at 50 uM preincubated for 15 mins before substrate addition measured after 10 mins. In short, it runs like this: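 Freshly isolated human PMNL (5 × 10^6/ml PBS-glucose, 1 mM CaCl2), with 15-LO1 from contaminating eosinophils, preincubated with compound 15 min at 37 °C; stimulated with 2.5 µM A23187 plus 20 µM AA for 10 min at 37 °C, methanol stop. 15-H(P)ETE peak quantified by HPLC as percent of DMSO control; n ≥ 3, mean ± S.E.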

Test [3] deals with Prostaglandin G/H synthase 1 (Homo sapiens) (UniProt P23219). Briefly: Inhibition of COX1 in human platelets using arachidonic acid as substrate assessed as residual activity at 50 uM preincubated for 15 mins before substrate addition measured after 10 mins. In short, it runs like this: as §1

As for `Oc1ccc(Nc2nc(-c3ccc(F)cc3)cs2)cc1`, the Activity in test [1] was 56.7%; in test [2], more than 70%; in test [3], 26.3%.
